US8552053B2, “7-substituted indirubin-3′oximes and their applications” (Centre National de la Recherche Scientifique, priority 2005, dated 2013)
Where two headings read alike, the source gives them in different places.

Tested on: GSK-3α/β
Assay: GSK-3α/β kinase assay
Type: biochemical, porcine

Substance: (2′Z,3′E)-7-bromoindirubin-3′-oxime [7BIO]
- inhibitory activity on GSK-3 (in words): marginal inhibitory activity
- inhibitory activity on GSK-3 (in words) (listed as 24): weak and gradually decreasing inhibitory activity
